Values quoted from earlier work in patent publication US20230102483A1, “[6R]-MTHF IN 5-FU BASED CHEMOTHERAPY OF LEFT-SIDED COLORECTAL CANCER” (Isofol Medical AB, priority 2021, published 2023).
Entries after “also recorded” stand apart in the source; their conditions may differ.

Settings: occurring in 10-30% or more of all treated patients; cited from earlier work

Substance: cetuximab: EGFR monoclonal antibody
- common side effects: Allergic reactions; also recorded: Heart attack; also recorded: Abnormal hair growth; also recorded: Swelling of skin around nails; also recorded: Blistering of the skin or mucous; also recorded: Skin changes such as acne-like; also recorded: Reduced levels of magnesium in; also recorded: Diarrhoea
